## Antibody variant affinities, Ab-14 heavy chain, assay B

Source: Li et al. 2023 (doi:10.1038/s41467-023-39022-2), MIT Lincoln Laboratory and A-Alpha Bio; data file from the FLAb repository.

Antigen: PDVDLGDISGINAS, a 14-residue peptide of the SARS-CoV-2 spike HR2 region.

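This is the validation round: designs drawn from the data on random variants, tested in the same kind of assay. Several design methods are mixed in this list. The assay is AlphaSeq: two haploid yeast populations carry antibody and antigen on their surface. Binding brings cells together so that they mate, and sequencing counts the barcode pairs among the diploids. A regression on co-assayed BCL2-family reference pairs converts the normalised counts of each replicate to an apparent Kd. Mating was done six times.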

Parent scFv Ab-14: VH joined to VL by the linker GGGGSGGGGSGGGGS. Changes lie in the heavy chain CDRs alone.
VH: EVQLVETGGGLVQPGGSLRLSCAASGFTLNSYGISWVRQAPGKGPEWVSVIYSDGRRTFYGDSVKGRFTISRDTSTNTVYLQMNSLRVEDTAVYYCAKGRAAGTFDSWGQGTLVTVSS
VL: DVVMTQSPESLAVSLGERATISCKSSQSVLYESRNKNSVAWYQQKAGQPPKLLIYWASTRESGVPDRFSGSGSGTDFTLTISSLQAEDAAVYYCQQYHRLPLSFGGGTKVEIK

Each variant is given by its three heavy chain CDRs, as the data file delimits them; those of the parent are GFTLNSYGIS, VIYSDGRRTFYGDSVK, GRAAGTFDS. Values are apparent Kd, the geometric mean of the replicates that gave a signal; lower means stronger binding. An entry "not detected" has no value in the source: the pair was not observed among the diploids in any replicate. This suggests poor binding but is not conclusive. The parent sequence was in this pool as ten entries: three were never detected, three once, and four in most replicates, with averages from 2.2 nM to 240 nM. The range of this assay differs from that of the first round, and the authors advise against merging the two. The authors averaged sequences with at least three values out of six and counted those with two or fewer as poor binders. Nonspecific signal, from three strains lacking the peptide, appeared in 1% of pairings of all heavy chain designs, centred on 120 nM (5% of these signals below 7.0 nM); values are not corrected for it. Also given: how often the same scFv was detected with the empty control strains.

CDR-H1 | CDR-H2 | CDR-H3 | Kd (apparent) | detected | signal with controls
GFSLNNYGIS | VIYSDGRRTFYGDHVK | GQAAGTFDS | 250 nM | 6 of 6 | 1 of 18
GITLNDYGIS | VIYSDGRRTFYGDSVK | GRAAGTFHS | not detected | 0 of 6 | 0 of 18
GFTLNSYGIS | VIYSDGRRTFYDDSVK | GQTAGMFDS | not detected | 0 of 6 | 0 of 18
GEDINEYGVS | VIYADGKRNAYANSVK | GKWAGAFVD | 5.7 nM | 6 of 6 | 1 of 18
GFDLNEYGIS | VIYADGKRTAYAESVK | GEVAGTFDV | 380 pM | 6 of 6 | 0 of 18
GFDLNSYGIS | VIYSDGRRTFYGDSVK | GKIAGTFDT | 2.3 nM | 6 of 6 | 0 of 18
GFDLNSYGIS | VIYSDGRRTWYGDSVK | GRNAGTFDS | 10 nM | 5 of 6 | 0 of 18
GFDLNEYGIS | VIYADGRRTFYSDKVK | GNTGGTFDI | 430 pM | 6 of 6 | 1 of 18
GFTLNEYGIS | VIYSDGRRTFYGDSVK | GEAAGTFDK | 4.3 nM | 6 of 6 | 1 of 18
GFDLNSYGIS | VIYSDGRRTFYGDSVK | GKTAGTFDW | 15 nM | 4 of 6 | 0 of 18
GFDLNSYGIS | VIYSDGRRTFYLDRVK | GNAAGTFDS | 22 nM | 5 of 6 | 0 of 18
GFTPNDYGIS | VIYSDGRRTFYGDSVK | GRAAGTKDS | not detected | 0 of 6 | 0 of 18
GFDLDEYGIS | VIYADGQRTFYIDSVK | GETAGTFDS | 660 pM | 5 of 6 | 0 of 18
GFDLDEYGIS | VIYADGQRTYYADSVK | GNNAGTFDV | 1.0 nM | 6 of 6 | 0 of 18
GFVLNDYGIS | VIYADGRRTFYGDSVK | GTAAGTFDS | 1.3 nM | 6 of 6 | 1 of 18
GETLNSYGIS | VIYSDGIRTFYKDSVR | GSAADTFDS | not detected | 0 of 6 | 0 of 18
GFDLNEYGIS | VIYSDGRRTFYGDSVK | GKTAGTFDS | 320 pM | 6 of 6 | 0 of 18
SFNLNSYGIS | VIYSDGRRTFYGDSVK | GRQAGTFDS | not detected | 0 of 6 | 0 of 18
GFDLNEYGIS | VIYADGRRTFYADSVK | GNIAGTFIS | 490 pM | 6 of 6 | 0 of 18
GFDINEYGIS | VIYADGRRTFYADSVK | GQTAGTFDL | 450 pM | 6 of 6 | 0 of 18
GFSLNTYGIS | VIYSDGRRTFYKDSVK | GQTAGTFDS | 6.3 nM | 4 of 6 | 0 of 18
GFQLNEYGIS | VIYSDGRRTFYSDSVK | GRAAGHFDS | not detected | 0 of 6 | 1 of 18
GFTLNEYGIS | VIYSDGRRTFYGDSVK | GRAAVTFDM | not detected | 0 of 6 | 0 of 18
GFDLNEYGIS | VIYADGRRTFYTDSVK | GEVAGTFDS | 210 pM | 6 of 6 | 0 of 18
GFGLDEFGIS | VIYADGLRSSYADDVK | GEMTGGFVV | not detected | 0 of 6 | 0 of 18
GFDLNEYGIS | VIYADGRRTFYSDSVK | GQLAGTFDF | 250 pM | 6 of 6 | 0 of 18
GFALNSYGIS | VIYSDGRRTFYSDSVK | GQLAGTFDS | 2.0 nM | 6 of 6 | 1 of 18
GFDLNEYGIS | VIYADGRRTFYSDSVK | GEIAGFFDQ | 170 pM | 6 of 6 | 0 of 18
GFDLNEYGIS | VIYADGRRTAYVDSVK | GEAAGTFDV | 260 pM | 6 of 6 | 0 of 18
GFNLNSYGIS | VIYSDGRRTFYGDSVK | GQAAGTFDN | 21 nM | 1 of 6 | 0 of 18
GFTLNDYGIS | VIYSDGRRTFYGDSVK | GRFAGTFDS | 53 nM | 6 of 6 | 0 of 18
GFSLNSYGIS | VIYSDGRRTFYSDSVK | GWTAGTFDS | 1.1 nM | 6 of 6 | 0 of 18
GFNLNQYGIS | VIYRDGRRTFYGDSVK | GRAGGYFDS | not detected | 0 of 6 | 0 of 18
GFDLNEYGIS | VIYADGRRTFYSDKVK | GNIGGTFDI | 140 pM | 6 of 6 | 0 of 18
GFDLNEYGIS | VIYADGRRTFYSDSVK | GEIAGTFDV | 6.5 nM | 5 of 6 | 0 of 18
GPTLNEYGIS | VIYVDGHRTFYGDSVK | GRAAVTFDQ | 1.8 nM | 6 of 6 | 0 of 18
KFDLNSYGIH | VIYSDGRRTFYGDSVK | GSAAGTFDS | 170 nM | 2 of 6 | 1 of 18
GFPLNEYGIS | VIYADGRRTFYGDSVK | GHAAGTFDS | 3.4 nM | 6 of 6 | 0 of 18
GFTIRSYGIS | VIYSDGRRTFYGDSVK | GRAAGTFDS | not detected | 0 of 6 | 0 of 18
GFILNDYGIS | VIYSDGRRTFYGDAVK | GRVAGTFDI | 9.7 nM | 6 of 6 | 0 of 18
GFDLNEYGIS | VIYADGMRTAYTDSVK | GTNAGTFDI | 290 pM | 6 of 6 | 0 of 18
GFDLDEYGIS | VIYADGKRTAYADSVK | GTNAGTFDM | 1.2 nM | 4 of 6 | 0 of 18
GFDLDEYGIS | VIYADGVRTFYADSVK | GNNAGTFDV | 6.0 nM | 6 of 6 | 0 of 18
GFDLNTYGIS | VIYSDGRRTFYADSVK | GREAGTFDS | 930 pM | 6 of 6 | 0 of 18
GNTLNEYGIS | VIYSDGRRTFYTDSVK | GRCAGTFDS | not detected | 0 of 6 | 0 of 18
GFDLDEYGIS | VIYADGRRTFYIDSVK | GETAGTFDQ | 210 pM | 6 of 6 | 0 of 18
GFDLNEYGIS | VIYADGRRTQYIDSVK | GETAGTFDK | 350 pM | 5 of 6 | 0 of 18
GFDLNEYGIS | VIYADGIRTAYTDSVK | GNVAGTFDV | 4.6 nM | 6 of 6 | 1 of 18
GFDLNSYGIS | VIYSDGRRTFYGDSVK | GKNAGTFDG | 11 nM | 2 of 6 | 0 of 18
GYSLDEYGIS | VIYADGVRQFYADDVK | GGIAGQFNY | 2.2 nM | 6 of 6 | 0 of 18
GFTLNVYGIS | VIYSDGLQTFYTDSVK | GRFAGTFDS | not detected | 0 of 6 | 0 of 18
GFDLNEYGIS | VIYADGRRTAYSDSVK | GEAGGTFDD | 1.6 nM | 6 of 6 | 1 of 18
GFVLNEYGIS | VIYSDGRRTFYIDSVK | GKAAGTFDS | 44 nM | 6 of 6 | 1 of 18
GFTLNNYGIS | VIYSDGRRTFYHDSVK | GRAAGTFDS | 26 nM | 3 of 6 | 1 of 18
GFDLNEYGVS | VIYADGQRTYYTESVK | GNFWDQLFV | 1.4 nM | 6 of 6 | 0 of 18
GSELNMYGIS | VIYSDGRRTFYGDSVR | GRAAGTFDS | 940 nM | 2 of 6 | 0 of 18
GFDLNEYGIS | VIYADGMRTAYSDDVK | GNVAGTFDT | 400 pM | 6 of 6 | 0 of 18
GFSLNEYGIS | VIYSDGRRTFYKDSVK | GQAAGTFDS | 1.4 nM | 6 of 6 | 0 of 18
GFDLNEYGIS | VIYADGVRTVYADSVK | GENAGTFDI | 300 pM | 6 of 6 | 0 of 18
GFDLDEYGIS | VIYADGQRTVYADSVK | GNNAGTFDV | 440 pM | 6 of 6 | 0 of 18
GFTLDSYGIS | VIYSDGRRTFYGDDVK | GRTAGTFDS | 66 nM | 4 of 6 | 0 of 18
GFELNSYGIS | VIYSDGRRTAYGDSVK | GKAAGTFDS | not detected | 0 of 6 | 0 of 18
GFDLNEYGIS | VIYADGRRTFYADSVK | GNNAGTFII | not detected | 0 of 6 | 0 of 18
GFTLNDYGIS | VIYSDGRRTFYTDSVK | GRMAGTFIS | not detected | 0 of 6 | 0 of 18
GFSLNEYGIS | VIYSDGRRTFYSDSVK | GKTAGTFDS | 270 pM | 6 of 6 | 0 of 18
GKKLDEYGIS | VIYADGKRNFYSNSVK | GGMATGLFV | not detected | 0 of 6 | 0 of 18

Top 11 of the variants detected in all replicates, tightest first:

CDR-H1 | CDR-H2 | CDR-H3 | Kd (apparent) | detected | signal with controls
GFDLNEYGIS | VIYADGRRTFYSDKVK | GNIGGTFDI | 140 pM | 6 of 6 | 0 of 18
GFDLNEYGIS | VIYADGRRTFYSDSVK | GEIAGFFDQ | 170 pM | 6 of 6 | 0 of 18
GFDLNEYGIS | VIYADGRRTFYTDSVK | GEVAGTFDS | 210 pM | 6 of 6 | 0 of 18
GFDLDEYGIS | VIYADGRRTFYIDSVK | GETAGTFDQ | 210 pM | 6 of 6 | 0 of 18
GFDLNEYGIS | VIYADGRRTFYSDSVK | GQLAGTFDF | 250 pM | 6 of 6 | 0 of 18
GFDLNEYGIS | VIYADGRRTAYVDSVK | GEAAGTFDV | 260 pM | 6 of 6 | 0 of 18
GFSLNEYGIS | VIYSDGRRTFYSDSVK | GKTAGTFDS | 270 pM | 6 of 6 | 0 of 18
GFDLNEYGIS | VIYADGMRTAYTDSVK | GTNAGTFDI | 290 pM | 6 of 6 | 0 of 18
GFDLNEYGIS | VIYADGVRTVYADSVK | GENAGTFDI | 300 pM | 6 of 6 | 0 of 18
GFDLNEYGIS | VIYSDGRRTFYGDSVK | GKTAGTFDS | 320 pM | 6 of 6 | 0 of 18
GFDLNEYGIS | VIYADGKRTAYAESVK | GEVAGTFDV | 380 pM | 6 of 6 | 0 of 18